For ten compounds, IC50 results are on record in patent US20250376468A1, “PYRAZOLO[1,5-a]PYRIDINE DERIVATIVES FOR TREATING TRPM3-MEDIATED DISORDERS” (Katholieke Universiteit Leuven, priority 2022, published 2025).

The chains behind the UniProt entries cited, without tags or fusion partners. Residues count along the entry.
UniProt J9SQF3, 1-1709 isoform 12: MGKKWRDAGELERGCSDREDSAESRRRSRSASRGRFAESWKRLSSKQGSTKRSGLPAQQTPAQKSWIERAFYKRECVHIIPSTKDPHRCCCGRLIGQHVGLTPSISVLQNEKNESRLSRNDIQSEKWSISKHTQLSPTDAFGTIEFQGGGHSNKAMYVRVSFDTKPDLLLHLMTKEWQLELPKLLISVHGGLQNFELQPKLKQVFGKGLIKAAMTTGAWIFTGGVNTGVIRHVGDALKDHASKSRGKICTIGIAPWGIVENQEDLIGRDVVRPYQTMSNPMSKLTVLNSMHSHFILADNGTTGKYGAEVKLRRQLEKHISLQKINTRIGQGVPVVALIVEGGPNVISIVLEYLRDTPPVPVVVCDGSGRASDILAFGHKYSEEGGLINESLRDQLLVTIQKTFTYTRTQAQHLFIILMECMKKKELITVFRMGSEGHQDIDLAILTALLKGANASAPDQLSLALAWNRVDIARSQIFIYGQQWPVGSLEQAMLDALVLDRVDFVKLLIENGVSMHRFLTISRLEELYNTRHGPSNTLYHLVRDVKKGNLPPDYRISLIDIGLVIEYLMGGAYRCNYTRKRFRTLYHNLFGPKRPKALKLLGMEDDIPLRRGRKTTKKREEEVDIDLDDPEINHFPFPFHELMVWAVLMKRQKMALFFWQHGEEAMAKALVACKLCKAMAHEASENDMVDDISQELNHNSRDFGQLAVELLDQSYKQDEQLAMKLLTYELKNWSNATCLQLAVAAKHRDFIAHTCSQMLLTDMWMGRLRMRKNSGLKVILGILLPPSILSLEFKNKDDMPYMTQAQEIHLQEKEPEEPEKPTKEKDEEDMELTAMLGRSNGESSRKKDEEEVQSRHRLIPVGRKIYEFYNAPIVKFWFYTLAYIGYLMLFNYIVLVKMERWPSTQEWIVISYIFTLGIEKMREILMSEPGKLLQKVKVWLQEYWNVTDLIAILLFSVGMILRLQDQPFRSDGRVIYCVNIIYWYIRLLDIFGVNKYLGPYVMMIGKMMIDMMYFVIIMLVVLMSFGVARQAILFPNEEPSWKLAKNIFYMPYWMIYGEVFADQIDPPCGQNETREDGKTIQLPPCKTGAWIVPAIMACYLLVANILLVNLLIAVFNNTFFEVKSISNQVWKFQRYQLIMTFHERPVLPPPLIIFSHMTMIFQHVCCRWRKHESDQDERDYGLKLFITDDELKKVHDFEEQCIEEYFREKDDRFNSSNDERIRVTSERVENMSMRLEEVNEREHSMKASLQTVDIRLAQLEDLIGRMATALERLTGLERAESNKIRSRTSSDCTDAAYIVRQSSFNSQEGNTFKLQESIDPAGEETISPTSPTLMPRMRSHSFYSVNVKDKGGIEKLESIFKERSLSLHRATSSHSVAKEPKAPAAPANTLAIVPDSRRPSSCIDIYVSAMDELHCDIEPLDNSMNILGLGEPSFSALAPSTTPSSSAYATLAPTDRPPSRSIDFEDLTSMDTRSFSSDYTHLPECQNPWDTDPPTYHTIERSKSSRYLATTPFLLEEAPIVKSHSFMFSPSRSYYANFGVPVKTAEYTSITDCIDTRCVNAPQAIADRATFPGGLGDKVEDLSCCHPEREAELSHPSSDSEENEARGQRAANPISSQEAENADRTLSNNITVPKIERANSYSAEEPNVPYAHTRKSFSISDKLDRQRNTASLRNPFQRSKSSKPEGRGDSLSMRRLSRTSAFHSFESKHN

For this assay, the target named is mouse TRPM3α2 (mTRPM3) ion channel (Mus musculus, UniProt J9SQF3). Put plainly: TRPM3 ion channel driven Ca2+ uptake, Fluo-4 AM assay, stimulated with pregnenolone sulfate (50 μM). Particulars: TRPM3 overexpressing flip-in HEK293 cells, PS 50 μM, 2.4 mM Ca2+. As to the method: In order to monitor the inhibition of the mouse TRPM3α2 (mTRPM3) ion channel by the compounds of the invention, a cellular system making use of an mTRPM3alpha2 or hTRPM3 overexpressing cell line (flip-in HEK293) was used. The TRPM3 channel was stimulated/opened with Pregnenolone sulfate (PS) (50 μM) which results in Ca^2+ influx.
For mTRPM3, the intracellular Ca^2+ was measured with a Calcium responsive dye, Fluor-4 AM ester (Invitrogen). Cells were cultured until a confluence of 80-90%, washed with Versene (Invitrogen) and detached from the surface by a short incubation with 0.05% Trypsin (Invitrogen). The […] was stopped by the addition of complete cell culture medium (DMEM, glutamax, 10% FCS, NEAA, Pen-Strep). Cells were collected and resuspended in Krebs buffer without Calcium at RT.
Prior the cell seeding (±2000 cells/well into a black, 384 well plate (Greiner)) the diluted compound was added in the assay plate, together with the PS dissolved in Krebs buffer containing Calcium. […] Directly after cell addition the plates were read on an Envision fluorescence reader (Perkin Elmer) by an Excitation of 485 nm and emission at 535 nm.
Channel inhibition was calculated compared to a non-PS stimulated control versus a condition stimulated with PS (50 μM) with vehicle. The ability of the compounds of the invention to inhibit this activity was determined as: Percentage inhibition=[1−((RFU determined for sample with test compound present−RFU determined for sample with positive control inhibitor) divided by (RFU determined in the presence of vehicle−RFU determined for sample with positive control inhibitor))]*100.
The activities of the Example compounds cpd 001-091 tested are depicted in the table below. All tested compounds show an activity in the Fluo-4 AM assay. The activity ranges A, B and C refer to IC50 values in the Fluo-4 AM assay as follows: “A”: IC50<1 μM; “B”: 1 μM≤IC50≤20 μM and “C”: IC50>20 μM.

What is called IC50 is the concentration that inhibits the measured activity by half. For the compound `Cc1nn2ccc(OCc3cccc(F)c3F)cc2c1C(=O)NC(C)(CO)C(N)=O` (single isomer, unassigned), the IC50 was 1 to 20 µM.

In turn, `Cc1nn2ccc(OCc3ccccn3)cc2c1C(=O)NC(CCO)c1ccc(F)cc1` (single isomer, unassigned) gave a half-maximal inhibitory concentration (IC50) greater than 20 µM. In turn, `Cc1cccc(COc2ccn3nc(C)c(C(=O)NC(C)(CO)C(N)=O)c3c2)c1F` (single isomer, unassigned) returned an IC50 of less than 1 µM. Take `Cc1nn2ccc(OCc3ccccn3)cc2c1C(=O)NC(C)(CO)c1ccn(C)n1` (single isomer, unassigned): the half-maximal inhibitory concentration (IC50) was greater than 20 µM. For `Cc1nn2ccc(OCc3ccccn3)cc2c1C(=O)NC(CO)C(F)(F)F` (single isomer, unassigned), the IC50 lay within 1 to 20 µM.

`COCC(C)(CC(F)F)NC(=O)c1c(C)nn2ccc(OCc3ccccn3)cc12` (single isomer, unassigned) gave an IC50 greater than 20 µM. With `Cc1nn2ccc(OCc3ccccn3)cc2c1C(=O)NC(CO)c1ccc(F)cc1` (single isomer, unassigned), the IC50 is greater than 20 µM.

In turn, `Cc1cccc(F)c1COc1ccn2nc(C)c(C(=O)NC(C)(CO)C(N)=O)c2c1` (single isomer, unassigned) had a concentration for half-maximal inhibition (IC50) of less than 1 µM. As to `CC(=O)C(C)(CO)NC(=O)c1c(C)nn2ccc(OCc3ccccn3)cc12` (single isomer, unassigned), the concentration for half-maximal inhibition (IC50) is 1 to 20 µM. `Cc1nn2ccc(OCc3ccccn3)cc2c1C(=O)NC(CO)c1nccn1C1CC1` (single isomer, unassigned): the IC50 fell in the range of 1 to 20 µM.
